Drawing on ChEMBL document CHEMBL3588758, “Structure-Affinity Relationships (SARs) and Structure-Kinetics Relationships (SKRs) of Kv11.1 Blockers” (J Med Chem, 2015), this text covers Ki and Kd for one compound.

The chains behind the UniProt entries cited, without tags or fusion partners. Where a name states a change or a piece, a line headed by the entry shows the natural chain unless it says otherwise.
UniProt Q12809: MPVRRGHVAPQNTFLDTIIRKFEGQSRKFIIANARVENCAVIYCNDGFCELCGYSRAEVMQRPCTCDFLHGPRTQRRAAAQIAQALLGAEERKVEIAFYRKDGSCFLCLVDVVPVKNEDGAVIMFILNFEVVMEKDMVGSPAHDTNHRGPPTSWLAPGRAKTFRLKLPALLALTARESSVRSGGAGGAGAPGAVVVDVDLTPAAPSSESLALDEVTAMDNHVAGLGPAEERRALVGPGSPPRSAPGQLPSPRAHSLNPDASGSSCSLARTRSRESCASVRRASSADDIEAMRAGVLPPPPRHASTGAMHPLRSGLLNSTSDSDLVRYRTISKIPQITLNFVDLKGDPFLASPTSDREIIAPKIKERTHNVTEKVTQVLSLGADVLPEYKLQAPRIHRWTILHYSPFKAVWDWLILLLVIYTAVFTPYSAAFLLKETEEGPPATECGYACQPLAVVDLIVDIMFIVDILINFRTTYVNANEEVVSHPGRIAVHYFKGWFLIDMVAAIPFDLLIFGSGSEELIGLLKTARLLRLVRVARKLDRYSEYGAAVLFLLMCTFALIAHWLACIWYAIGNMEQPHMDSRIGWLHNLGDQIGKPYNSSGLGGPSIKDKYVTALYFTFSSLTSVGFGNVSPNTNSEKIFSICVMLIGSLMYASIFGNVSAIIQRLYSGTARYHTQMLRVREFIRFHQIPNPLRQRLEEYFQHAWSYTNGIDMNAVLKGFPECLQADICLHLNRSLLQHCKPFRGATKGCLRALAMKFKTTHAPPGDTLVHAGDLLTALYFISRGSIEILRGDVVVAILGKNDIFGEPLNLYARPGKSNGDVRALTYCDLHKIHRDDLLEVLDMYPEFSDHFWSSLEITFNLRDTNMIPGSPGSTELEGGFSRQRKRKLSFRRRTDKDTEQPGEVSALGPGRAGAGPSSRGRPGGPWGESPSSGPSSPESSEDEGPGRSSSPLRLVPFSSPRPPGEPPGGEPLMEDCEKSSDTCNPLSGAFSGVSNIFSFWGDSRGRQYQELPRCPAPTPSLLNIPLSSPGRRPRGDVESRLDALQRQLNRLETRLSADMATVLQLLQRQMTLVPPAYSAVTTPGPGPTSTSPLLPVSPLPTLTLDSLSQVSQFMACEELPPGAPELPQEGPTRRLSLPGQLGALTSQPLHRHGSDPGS

Experiment [1] has as its target T1, Voltage-gated inwardly rectifying potassium channel KCNH2 (Homo sapiens, UniProt Q12809).
In experiment [2] the target is T1, Voltage-gated inwardly rectifying potassium channel KCNH2. This is another data set of the same source.

What is called Ki is a dissociation constant, usually derived from enzyme kinetics or from competition with a known ligand. In general, Kd refers to the equilibrium constant for the complex coming apart. Higher therefore signals lower affinity. Compound `CCCCCCCCc1cccc(CCCCCCCC)[n+]1C` returned a Ki in experiment [1] of 3.5 nM. Further, the dissociation constant (Kd) in experiment [2] was determined as 1.9 nM.
